Assay outcomes from PubChem BioAssay.
Statin myotox sup – suppression of simvastatin myotoxicity | C2C12 myotubes + simvastatin, ATP luminescence, 48 h; scaled: DMSO 0, geranylgeraniol control 100 | rescue of ATP level, % at 7.49 µM | 330,000 tested, 0.78% active;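 active = mean ATP rescue above about 67%, or every replicate alone reaching that limit, limit read from the data, passing the limit was not always enough; inconclusive = no clear call, values can overlap the other calls; inactive = mean under the limit and some replicate under it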;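 note: myotubes were challenged with 10 µM simvastatin during compound exposure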
PGC1a acetyl inh – PGC1a acetylation modulation, inhibitor mode; U2OS PGC1a acetylation, AlphaScreen anti-acetyl-lysine; with virally co-expressed GCN5 acetyltransferase; 350,000 tested, 0.17% active; inhibition, % at 15.6 µM;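 active = every replicate shows inhibition of at least 40%; inconclusive = mean inhibition at least 40% but some replicate below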;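 note: 0% = neutral control wells and 100% = positive control wells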
esBAF inh – SWI/SNF esBAF complex inhibition; reporter increase, % at 12.5 µM; AID 602393; mouse ES cells, Bmi1-luciferase knock-in reporter, 24 h; 100% = twice the neutral-well signal; 350,000 tested, 2% active; in the data active = activation above about 40%; inconclusive = no clear call, values can overlap the other calls;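 note: 0% = median of the plate's neutral control wells and 100% = double that signal; a rise in the Bmi1 reporter signal indicates esBAF inhibition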
UUG fidelity – modulators of start codon recognition fidelity in yeast. S. cerevisiae UUG-firefly luciferase reporter, luminescence/redox ratio. activity score, % at 18.7 µM. 0.13% of 350,000 active. AID 602363;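 active = replicate mean at a twofold rise or more, about +100% in these data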;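 also: firefly luciferase made from a UUG start codon reports start codon fidelity; reporter light over untreated wells divided by growth signal over untreated wells; some hits fall short of that in this replicate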
E-selectin induc – induces E-selectin expression in human endothelial cells; P16581; HUVEC E-selectin immunofluorescence imaging; normalized: neutral wells 0, TNF-alpha wells 100; activation, % at 7.58 µM; 260,000 tested, 0.37% active; AID 686992;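 active = mean E-selectin-positive cell signal at least 10% of the positive control, reached in at least 60% of replicates, without over 20% cell loss; inconclusive = no rule given, readout overlaps actives, possibly toxicity-flagged; inactive = the rest, including those meeting only one limit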
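material = human umbilical vein endothelial cells (HUVEC), E-selectin induction | quantity = 3,000 cells/well | medium = EGM-2 growth medium on 0.1% gelatin-coated wells | technique = immunofluorescence imaging | read-out basis = % PE-positive cells | control set = TNF-alpha positive control, DMSO neutral control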
PglD DTNB – inhibitors of Campylobacter jejuni PglD acetyltransferase; AID 602405; inhibition, % at 12.5 µM; 360,000 tested, 0.098% active; purified PglD enzyme, DTNB colorimetric CoA detection; in the data active = inhibition above about 16%, passing the limit was not always enough; inconclusive = no clear call, values can overlap the other calls
* hit, by the source's call; ? = inconclusive; · = not tested or not shown. A selection: hits, their analogues and other compounds. The true share with any hit is near 2.8%.

Under each structure: Statin myotox sup | PGC1a acetyl inh | esBAF inh | UUG fidelity | E-selectin induc | PglD DTNB
- CO[C@@H](C(=O)N(C)C[C@H]1OCc2ccccc2-c2ccccc2C(=O)N([C@H](C)CO)C[C@@H]1C)c1ccccc1
    -2.9 | 3.0 | 4.6 | · | 0.1 | 0.1
- Clc1cccc(/C=N/Nc2nc(Cl)nc3ccccc23)c1
    7.5 | 3.2 | 52.2* | 1.6 | -2.3 | -4.5
- Clc1ccc(/C=N/Nc2ncnc3ccccc23)cc1Cl
    · | · | 74.3* | -1.2 | · | 3.4
- Cc1cc(C)nc(N/N=C/c2cccc(Cl)c2)n1
    · | · | · | · | 3.7 | ·
- Nc1c(Cl)ncnc1N/N=C/c1cccc(O)c1
    1.9 | -4.5 | 8.5 | · | · | ·
- C[C@H](O)C#Cc1cnc2c(c1)C(=O)N([C@@H](C)CO)C[C@H](C)[C@@H](CN(C)CC1CCCC1)O2
    -2.8 | 0.7 | -4.7 | -4.7 | -0.1 | 4.4
- O=C(CC1CCCCC1)NCc1ccccn1
    0.9 | 9.1 | -9.3 | -22.3 | · | 0.5
- O=C(CC1CCCCC1)NCc1ccccc1Cl
    12.3 | -4.8 | 52.6* | -10.4 | 0.8 | 3.1
- CC(=O)c1ccc(NC(=O)NC2CCCCCCC2)cc1
    -23.9 | · | 68.2* | -2.2 | · | -1.3
- O=C(Nc1ccc(F)cc1)NC1CCCCCCC1
    -13.8 | 2.6 | 59.1* | -3.8 | -0.2 | -1.9
- O=C(Nc1ccccc1F)NC1CC1
    20.9 | 8.1 | ? | -3.7 | · | 6.1
- CC(=O)c1cccc(NC(=O)NC2CCCCC2)c1
    0.8 | 3.4 | 22.0 | 1.8 | · | -3.8
- O=C(Nc1ccc(Cl)cc1)NC1CCCCC1
    · | -8.6 | · | 0.3 | · | -6.0
- O=C(Nc1ccccc1F)NC1CCCCCCC1
    -1.7 | · | 53.9* | 2.6 | 0.0 | 6.1
- O=C(Nc1ccc(F)c(F)c1)NC1CCCCC1
    -25.0 | 4.3 | 65.9* | -12.6 | · | 2.8
- Nc1ccc(NC(=O)NC2CCCCC2)cc1
    2.6 | 15.7 | 3.5 | -3.8 | -4.0 | -1.4
- C[C@@H]1CCCCO[C@H](CN(C)S(=O)(=O)c2cccs2)[C@H](C)CN([C@H](C)CO)C(=O)c2cc(NC(=O)Nc3ccccc3)ccc2O1
    · | -6.4 | 7.1 | -7.4 | · | -0.3
- O=C(NC[C@H]1CC[C@@H]2[C@@H](CN2Cc2ccc(Oc3ccccc3)cc2)O1)C1CCOCC1
    · | 0.1 | · | · | · | ·
- O=C(Nc1ccc2nsnc2c1)C1CC1
    -22.5 | -7.9 | -10.4 | -11.8 | · | 2.7
- CC(=O)c1ccc(NC(=O)Nc2ccc(Cl)cc2)cc1
    -12.8 | · | 65.6* | · | · | ·

Grouped by structure: the entries above containing four or more nitrogen atoms (5)
Under each structure: Statin myotox sup | PGC1a acetyl inh | esBAF inh | UUG fidelity | E-selectin induc | PglD DTNB
- Clc1cccc(/C=N/Nc2nc(Cl)nc3ccccc23)c1
    7.5 | 3.2 | 52.2* | 1.6 | -2.3 | -4.5
- Clc1ccc(/C=N/Nc2ncnc3ccccc23)cc1Cl
    · | · | 74.3* | -1.2 | · | 3.4
- Cc1cc(C)nc(N/N=C/c2cccc(Cl)c2)n1
    · | · | · | · | 3.7 | ·
- Nc1c(Cl)ncnc1N/N=C/c1cccc(O)c1
    1.9 | -4.5 | 8.5 | · | · | ·
- C[C@@H]1CCCCO[C@H](CN(C)S(=O)(=O)c2cccs2)[C@H](C)CN([C@H](C)CO)C(=O)c2cc(NC(=O)Nc3ccccc3)ccc2O1
    · | -6.4 | 7.1 | -7.4 | · | -0.3

Continued.
Under each structure: Statin myotox sup | PGC1a acetyl inh | esBAF inh | UUG fidelity | E-selectin induc | PglD DTNB
- CC(=O)c1ccc(NC(=O)Nc2ccncc2)cc1
    7.5 | -3.7 | 5.7 | 0.8 | · | 3.7
- S=C(Nc1cccc2ccccc12)NC1CCCCC1
    -1.6 | -6.8 | 57.4* | -32.4 | · | 3.1
- CC1CCCCC1NC(=S)Nc1ccc(SC(F)F)cc1 (stereo not drawn)
    -88.4 | 4.4 | 25.6 | -15.1 | · | 3.7
- O=C(Nc1ccc2nsnc2c1)NC1CCCCC1
    -7.1 | -6.6 | 60.1* | -26.0 | · | -3.1
- FC(F)Sc1ccc(NC(=S)NC2CCCCC2)cc1
    -1.0 | 10.5 | 50.5* | -38.0 | · | 6.6
- COc1ccc(S(=O)(=O)N2CC3(CN(C(=O)CN(C)C)[C@H](CO)c4c3c3ccc(OC)cc3n4C)C2)cc1
    · | -10.2 | · | · | 0.3 | ·
- CC(C)NC(=O)N1[C@@H](CO)[C@@H]2c3ccccc3N(C(=O)Nc3ccccc3)C[C@@H]21
    -10.3 | -5.1 | 18.5 | -9.8 | 0.1 | 5.4
- O=C(NCCc1ccccc1)[C@@H]1[C@@H](CO)[C@@H]2Cn3c(cccc3=O)[C@H]1N2CC1CC1
    -2.1 | -0.6 | -0.5 | · | -0.1 | 3.3
- Cc1nc(NC(=O)Nc2ccc(Cl)cc2)sc1C
    3.0 | -0.2 | 58.3* | -16.1 | · | -3.4
- O=C(Oc1ccc(Cl)cc1N1C(=O)CCC1=O)c1ccco1
    65.8* | 0.3 | -8.7 | -18.1 | · | -1.6
- C/C=C/c1cnc2c(c1)C(=O)N([C@@H](C)CO)C[C@H](C)[C@H](CN(C)C(=O)c1ccc3c(c1)OCO3)O2
    16.7 | -2.9 | -4.8 | -5.5 | -0.1 | -1.8
- O=C(/C=C/c1ccc(Cl)cc1)NC1CC2CCC1C2 (stereo not drawn)
    1.4 | -6.4 | 31.2 | -21.6 | 34.7* | -4.0
- O=C(Nc1cccc(Cl)c1)NC1CC2CCC1C2 (stereo not drawn)
    -2.3 | · | 50.0* | -5.5 | 0.5 | -0.7
- O=C(COC(=O)/C=C/c1ccc(Cl)cc1)NC1CCCC1
    19.2 | -0.7 | 1.1 | -15.1 | -1.2 | 0.1
- O=C(Nc1cccc(Cl)c1)Nc1cccc(Cl)c1
    · | -0.7 | 5.0 | -23.0 | · | 3.2
- Cc1ccc(NS(=O)(=O)c2ccc(-n3cccn3)cc2)cc1C
    164.1* | -3.9 | 6.6 | -20.4 | · | 10.1
- COc1ccccc1S(=O)(=O)N[C@@H]1CC[C@@H](CCn2cc(C3CC3)nn2)O[C@H]1CO
    0.5 | -0.3 | 2.2 | 2.4 | -0.2 | 0.5
- CC(C)(C)c1ccc(OCC(=O)N/N=C/c2cc(Br)ccc2OC(=O)c2ccco2)cc1
    135.3* | 11.2 | -3.4 | -9.1 | · | -12.4
- Cc1cc(C)c(NC(=O)c2ccc(S(=O)(=O)N(C)C)cc2)c(C)n1
    23.0 | 50.4* | -4.3 | -4.3 | · | 7.7
- O=C(Nc1ccc(F)cc1)N[C@H]1CC[C@@H](CC(=O)N2CCCCC2)O[C@H]1CO
    2.5 | 3.9 | -3.2 | -24.4 | 0.0 | 5.2
- COc1cc(/C=C(/C(=O)c2cccs2)c2nc3ccccc3[nH]2)cc(OC)c1O
    119.5* | -1.1 | 100.9* | -5.1 | · | 1.0
- O=C(/C(=C/c1ccc(Cl)cc1)c1nc2ccccc2[nH]1)c1ccccc1
    -17.7 | -16.9 | -69.3 | -15.9 | · | -1.1
- COc1ccc(C(=O)O/N=C(\N)c2ccc(OC)c(OC)c2)c(OC)c1
    -1.3 | 6.5 | 56.1* | 6.2 | · | -9.5
- COc1ccc(C(=O)O/N=C(\N)c2ccc(OC)c(OC)c2)cc1
    -11.1 | -13.2 | 25.9 | -7.4 | -0.1 | 0.6
- COc1ccc(/C(N)=N/OC(=O)C2CCCCC2)cc1
    -7.9 | · | 60.7* | 11.6 | -0.1 | -3.1
- N/C(=N\OC(=O)C1CCCCC1)c1cccc(Br)c1
    2.8 | 1.0 | 44.6* | 6.2 | · | 5.1
- N/C(=N\OC(=O)CC1CCCCC1)c1ccc(Cl)cc1
    -6.0 | · | 40.9* | -19.9 | -0.4 | 0.2
- N/C(=N\OC(=O)CC1CCCCC1)c1cccc(Br)c1
    -5.0 | · | 28.8 | -27.3 | 0.3 | 3.5
- O=C(C[C@H]1C[C@H]2c3cc(NC(=O)Cc4ccncc4)ccc3O[C@H]2[C@@H](CO)O1)NCCN1CCCCC1
    -0.2 | -1.1 | -5.3 | · | 1.1 | -0.6
- C[C@@H]1CCCCO[C@H](CN(C)C(=O)c2ccncc2)[C@H](C)CN([C@H](C)CO)C(=O)c2cc(NC(=O)CCC(F)(F)F)ccc2O1
    · | 0.3 | -11.0 | 29.6 | -0.3 | -2.5
- O=C(Nc1ccc2c(c1)[C@H]1C[C@@H](CC(=O)N3CCCCC3)O[C@H](CO)[C@H]1O2)c1ccc2c(c1)OCO2
    9.7 | -8.6 | -2.7 | 7.9 | 0.2 | -0.8
- C[C@H](CO)N1C[C@H](C)[C@H](CN(C)Cc2cncnc2)Oc2ncc(-c3ccc(C#N)cc3)cc2C1=O
    9.0 | -2.7 | -1.3 | -2.2 | -0.2 | 5.6
- COc1ccc(/C(N)=N/OC(=O)C2CCCCC2)cc1OC
    -2.4 | · | 51.3* | -7.7 | 0.0 | -4.6
